Measurements taken from patent publication US4205086A, “Method for the treatment of gallstones” (priority 1977, dated 1980).

How the values were obtained:
[1] = test comparing the solubility of gallstones in glycerol mono-octanoate and 200 mM sodium cholate (Example 2); parameters: species or system human (patient); settings: six days; sodium cholate 200 mM, mono-octanoate solution as in Example 1
[2] = in vitro study comparing the solubility of gallstones in glycerol mono-octanoate and sodium cholate (matched stones, Example 1); parameters: species or system human (patients)

## CCCCCCCC(=O)OCC(O)CO (stereo not drawn) [glycerol mono-octanoate]
[1]
  change in size of stones: progressively decreased in size
[2]; 11.7 g per 100 ml mono-octanoate vs 150 mM sodium cholate, 37° C., 72 hours
  average amount of stone dissolved by mono-octanoate relative to sodium cholate: 2.5 times
[2]; each pair of stones, 15 patients
  performance in dissolving the stone versus sodium cholate solution: superior
[2]; first day, 37° C., 11.7 g per 100 ml vs 150 mM sodium cholate
  mean ratio of amounts dissolved (mono-octanoate / sodium cholate), first day: 2.2
[2]; second day, 37° C., 11.7 g per 100 ml vs 150 mM sodium cholate
  mean ratio of amounts dissolved (mono-octanoate / sodium cholate), second day: 2.9
[2]; third day, 37° C., 11.7 g per 100 ml vs 150 mM sodium cholate
  mean ratio of amounts dissolved (mono-octanoate / sodium cholate), third day: 3.0
